{"sequences": {"note": "Amino acid sequences for entries named in this document (tags omitted). Residues count along the entry.", "UniProt P02745, 23-245": "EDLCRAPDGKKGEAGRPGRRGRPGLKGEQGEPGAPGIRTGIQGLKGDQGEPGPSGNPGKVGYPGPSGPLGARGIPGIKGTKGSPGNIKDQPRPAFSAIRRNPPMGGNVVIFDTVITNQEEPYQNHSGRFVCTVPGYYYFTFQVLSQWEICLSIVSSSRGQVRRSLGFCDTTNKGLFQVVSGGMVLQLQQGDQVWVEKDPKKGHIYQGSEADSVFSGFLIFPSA", "human complement factor C1q, UniProt P02746, 28-253": "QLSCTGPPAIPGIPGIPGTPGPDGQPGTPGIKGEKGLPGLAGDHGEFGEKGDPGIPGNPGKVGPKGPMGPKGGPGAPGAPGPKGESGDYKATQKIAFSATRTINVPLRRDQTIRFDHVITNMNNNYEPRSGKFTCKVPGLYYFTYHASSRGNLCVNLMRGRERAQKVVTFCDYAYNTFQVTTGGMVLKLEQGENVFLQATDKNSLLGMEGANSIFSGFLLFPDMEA", "human complement factor C1q, UniProt P02747, 29-245": "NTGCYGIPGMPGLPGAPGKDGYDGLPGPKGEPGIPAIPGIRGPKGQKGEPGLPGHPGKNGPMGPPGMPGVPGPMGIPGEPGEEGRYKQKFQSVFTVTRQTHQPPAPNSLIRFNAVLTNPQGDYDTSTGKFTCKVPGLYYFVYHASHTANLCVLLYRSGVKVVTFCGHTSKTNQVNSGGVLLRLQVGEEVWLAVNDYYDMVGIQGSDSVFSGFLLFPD"}, "source": "paper PMC4415926", "target": "recombinant pneumococcal GAPDH (glyceraldehyde 3-phosphate dehydrogenase) fused to a His6-tag at the N-terminus (S. pneumoniae) (UniProt Q8CWN6)", "test": "ELISA; 100 ug peptidoglycan-only pneumococcal sacculi coated on 96-well plate; GAPDH 10 ug/ml in TBS-C (50 mM Tris pH 8.0, 100 mM NaCl, 2 mM CaCl2) 1 h RT, or none; normal human serum 1:25 1 h RT; bound C1q detected with rabbit anti-C1q, chemiluminescence", "data": [{"substance": "human complement factor C1q (from UniProt P02745 23-245; P02746 28-253; P02747 29-245) (complex)", "values": [{"measurement": "fold C1q deposition against sacculi without GAPDH", "value": 5, "unit": "fold"}]}]}
